In patent publication US9694016B2 (Novartis AG, priority 2013, dated 2017) one finds IC50 data, which are given here for 33 compounds.

Amino acid sequences for entries named in this document (tags omitted).
UniProt P04049, whole entry Y340E/Y341E: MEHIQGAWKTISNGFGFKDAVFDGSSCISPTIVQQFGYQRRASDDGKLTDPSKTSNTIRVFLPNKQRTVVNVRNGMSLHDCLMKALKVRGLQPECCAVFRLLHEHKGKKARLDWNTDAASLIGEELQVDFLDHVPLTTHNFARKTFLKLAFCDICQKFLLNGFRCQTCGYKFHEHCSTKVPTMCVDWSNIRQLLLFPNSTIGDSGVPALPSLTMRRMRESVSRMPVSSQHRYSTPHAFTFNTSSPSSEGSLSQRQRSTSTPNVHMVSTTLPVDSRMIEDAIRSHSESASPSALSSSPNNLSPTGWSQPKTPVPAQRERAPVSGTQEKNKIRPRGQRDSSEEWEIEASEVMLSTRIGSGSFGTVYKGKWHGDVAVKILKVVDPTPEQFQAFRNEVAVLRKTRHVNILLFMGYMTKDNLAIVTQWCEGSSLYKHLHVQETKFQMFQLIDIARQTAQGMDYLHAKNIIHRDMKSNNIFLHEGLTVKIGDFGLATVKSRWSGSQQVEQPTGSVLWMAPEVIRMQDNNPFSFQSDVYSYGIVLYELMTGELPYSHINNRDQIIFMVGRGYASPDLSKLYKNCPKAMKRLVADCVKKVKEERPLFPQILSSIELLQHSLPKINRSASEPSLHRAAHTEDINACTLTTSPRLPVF

In the first assay the target is C-Raf FL (full-length C-Raf protein, Y340E and Y341E activating mutations) (Homo sapiens (Human), UniProt P04049, Y340E/Y341E). The class given is biochemical. Particulars: AlphaScreen, 60 min pre-incubation, 1 hour reaction; read-out: c-Raf FL IC-50. On the technique in general: In Alpha technology, singlet oxygen from a donor bead excites a nearby acceptor bead.
As to `Cc1ncc(NC(=O)c2cccc(C(F)(F)F)c2)cc1-c1cc(N2CCOCC2)nc(NC[C@H](C)O)n1` [Example 740, (S)—N-(5-(2-((2-hydroxypropyl)amino)-6-morpholinopyrimidin-4-yl)-6-methylpyridin-3-yl)-3-(trifluoromethyl)benzamide], the IC50 was 0.3 nM.

`Cc1ncc(NC(=O)c2ccnc(C(C)(C)C#N)c2)cc1-c1cc(N2CCOCC2)nc(NC[C@@H](C)O)n1` [Example 742, (R)-2-(2-cyanopropan-2-yl)-N-(5-(2-((2-hydroxypropyl)amino)-6-morpholinopyrimidin-4-yl)-6-methylpyridin-3-yl)isonicotinamide]: the IC50 is 4.6 nM.

With `COc1cncc(NC(=O)c2ccc(C)c(-c3cc(N4CCOCC4)c(=O)n(C)c3)c2)c1` [Example 442, N-(5-methoxypyridin-3-yl)-4-methyl-3-(1-methyl-5-morpholino-6-oxo-1,6-dihydropyridin-3-yl)benzamide], the IC50 stood at 20.2 nM.

Consider `Cc1ncc(NC(=O)c2ccnc(C(C)(C)C#N)c2)cc1-c1cc(N2CCOCC2)c(OC2CCOCC2)nn1` [Example 633, 2-(2-cyanopropan-2-yl)-N-(6-methyl-5-(5-morpholino-6-((tetrahydro-2H-pyran-4-yl)oxy)pyridazin-3-yl)pyridin-3-yl)isonicotinamide], for which the IC50 was 2.2 nM.

Turning to `Cc1ncc(NC(=O)c2ccnc(C(C)(F)F)c2)cc1-c1cc(N2CCOCC2)n(C)c(=O)c1` [Example 510, 2-(1,1-difluoroethyl)-N-(1′,2-dimethyl-6′-morpholino-2′-oxo-1′,2′-dihydro-[3,4′-bipyridin]-5-yl)isonicotinamide], the IC50 is 1.4 nM.

In the case of `CCOc1nnc(-c2cc(NC(=O)c3ccnc(C(C)C)c3)cnc2C)cc1N1CCOCC1` [Example 621, N-(5-(6-ethoxy-5-morpholinopyridazin-3-yl)-6-methylpyridin-3-yl)-2-isopropylisonicotinamide], the IC50 is 0.7 nM.

On to `Cc1ccc(NC(=O)c2ccnc(C3CC3)c2)cc1-c1cc(N2CCOCC2)n(C)c(=O)c1` [Example 477, 2-cyclopropyl-N-(4-methyl-3-(1-methyl-6-morpholino-2-oxo-1,2-dihydropyridin-4-yl)phenyl)isonicotinamide], for which the IC50 stood at 0.2 nM.

For the compound `CCC(F)(F)c1cc(C(=O)Nc2cnc(C)c(-c3cncc(N4CCOCC4)n3)c2)ccn1` [Example 537, 2-(1,1-difluoropropyl)-N-(6-methyl-5-(6-morpholinopyrazin-2-yl)pyridin-3-yl)isonicotinamide], the IC50 was determined as 0.6 nM.

As to `Cc1ccc(NC(=O)c2cnnc(C(C)(C)C#N)c2)cc1-c1cc(N2CCOCC2)c(=O)n(C)n1` [Example 646, 6-(2-cyanopropan-2-yl)-N-(4-methyl-3-(1-methyl-5-morpholino-6-oxo-1,6-dihydropyridazin-3-yl)phenyl)pyridazine-4-carboxamide], the IC50 is 3.1 nM.

For `CCOc1nc(-c2cc(NC(=O)c3ccnc(C(C)(F)F)c3)ccc2C)cc(N2CCOCC2)n1` [Example 761, 2-(1,1-difluoroethyl)-N-(3-(2-ethoxy-6-morpholinopyrimidin-4-yl)-4-methylphenyl)isonicotinamide], the IC50 was determined as 0.2 nM.

Consider `Cc1ccc(NC(=O)c2ccnc(C(C)(F)F)c2)cc1-c1cc(N2CCOCC2)c(OC2CCOCC2)nn1` [Example 579, 2-(1,1-difluoroethyl)-N-(4-methyl-3-(5-morpholino-6-((tetrahydro-2H-pyran-4-yl)oxy)pyridazin-3-yl)phenyl)isonicotinamide], for which the IC50 turned out to be 0.2 nM.

Regarding `Cc1ccc(NC(=O)c2ccnc(C(C)(C)C#N)c2)cc1-c1cc(N2CCOCC2)nc(N2CC(O)C2)n1` [Example 769], the IC50 came to 8000 nM.

Still in this assay, the particulars now being: AlphaScreen, 60 min pre-incubation, reaction 1 hour at room temperature; read-out: c-Raf FL IC-50.
`Cc1ncc(NC(=O)c2cccc(C(F)(F)F)c2)cc1-c1cnc(OC[C@H](C)O)c(N2CCOCC2)c1` [Example 1022, (S)—N-(6′-(2-hydroxypropoxy)-2-methyl-5′-morpholino-[3,3′-bipyridin]-5-yl)-3-(trifluoromethyl)benzamide]: the IC50 was found to be 0.37 nM.

Take `Cc1ncc(NC(=O)c2ccnc(S(C)(=O)=O)c2)cc1-c1cc(NCCO)nc(N2CCOCC2)c1` [Example 1043, N-(2′-((2-hydroxyethyl)amino)-2-methyl-6′-morpholino-[3,4′-bipyridin]-5-yl)-2-(methylsulfonyl)isonicotinamide]: the IC50 was determined as 3.71 nM.

For `Cc1ccc(NC(=O)c2ccnc(C(F)F)c2)cc1-c1cc(N2CCOCC2)nc(N2CC(C)(O)C2)c1` [Example 1072, 2-(difluoromethyl)-N-(3-(2-(3-hydroxy-3-methylazetidin-1-yl)-6-morpholinopyridin-4-yl)-4-methylphenyl)isonicotinamide], the IC50 came to 0.41 nM.

For `Cc1ncc(NC(=O)c2ccnc(C(F)F)c2)cc1-c1cnc(OC(F)F)c(N2CCOCC2)c1` [Example 982, N-(6′-(difluoromethoxy)-2-methyl-5′-morpholino-[3,3′-bipyridin]-5-yl)-2-(difluoromethyl)isonicotinamide], the IC50 amounted to 1.1 nM.

Turning to `Cc1ccc(NC(=O)c2ccnc(C3CC3)c2)cc1-c1cnc(OCCO)c(N2CCOCC2)c1` [Example 999, 2-cyclopropyl-N-(3-(6-(2-hydroxyethoxy)-5-morpholinopyridin-3-yl)-4-methylphenyl)isonicotinamide], the IC50 amounted to 0.19 nM.

Consider `Cc1ncc(NC(=O)c2ccnc(C(C)C)c2)cc1-c1cc(N2CCOCC2)nc(N2CCOCC2)c1` [Example 1119, 2-isopropyl-N-(2-methyl-2′,6′-dimorpholino-[3,4′-bipyridin]-5-yl)isonicotinamide], for which the IC50 was 0.35 nM.

Consider `Cc1ccc(NC(=O)c2ccnc(C(C)(C)C#N)c2)cc1-c1cn2ccnc2c(N2CCOCC2)n1` [Example 860, 2-(2-cyanopropan-2-yl)-N-(4-methyl-3-(8-morpholinoimidazo[1,2-a]pyrazin-6-yl)phenyl)isonicotinamide], for which the IC50 amounted to 0.7 nM.

In the case of `CCOc1cc(-c2cc(NC(=O)c3ccnc(C(F)(F)F)c3)ccc2C)cc(N2CCOCC2)n1` [Example 1133, N-(3-(2-ethoxy-6-morpholinopyridin-4-yl)-4-methylphenyl)-2-(trifluoromethyl)isonicotinamide], the IC50 was 0.3 nM.

Consider `Cc1ccc(NC(=O)c2ccnc(C(F)(F)F)c2)cc1-c1cc(N2CCOCC2)c2nccn2c1` [Example 849, N-(4-methyl-3-(8-morpholinoimidazo[1,2-a]pyridin-6-yl)phenyl)-2-(trifluoromethyl)isonicotinamide], for which the IC50 was 0.9 nM.

In the case of `Cc1ncc(NC(=O)c2cccc(C(F)F)c2)cc1-c1cc(N2CCOCC2)c2nccn2c1` [Example 880, 3-(difluoromethyl)-N-(6-methyl-5-(8-morpholinoimidazo[1,2-a]pyridin-6-yl)pyridin-3-yl)benzamide], the IC50 is 0.6 nM.

Still in this assay, the particulars now being: Table 2; AlphaScreen, 1 hour reaction; read-out: c-Raf FL IC-50.
For `Cc1ccc(NC(=O)c2cc(C(F)(F)F)ccn2)cc1-c1cc(N2CCOCC2)c(=O)n(C)c1` [Example 364, N-(4-methyl-3-(1-methyl-5-morpholino-6-oxo-1,6-dihydropyridin-3-yl)phenyl)-4-(trifluoromethyl)picolinamide], the IC50 was determined as 0.5 nM.

For the compound `CCOc1ncc(-c2cc(NC(=O)c3ccnc(C4COC4)c3)cnc2C)cc1N1CCOCC1` [Example 255, N-(6′-ethoxy-2-methyl-5′-morpholino-[3,3′-bipyridin]-5-yl)-2-(oxetan-3-yl)isonicotinamide], the IC50 stood at 2 nM.

Take `Cc1ncc(NC(=O)c2cccc(C(C)(F)F)c2)cc1-c1ccnc(N2CCOCC2)c1` [Example 101, 3-(1,1-difluoroethyl)-N-(2-methyl-2′-morpholino-[3,4′-bipyridin]-5-yl)benzamide]: the IC50 is 0.3 nM.

Consider `Cc1ccc(NC(=O)c2cccc(C(F)(F)F)c2)cc1-c1cc(N2CCOCC2)c(=O)n(C)n1` [Example 164, N-(4-methyl-3-(1-methyl-5-morpholino-6-oxo-1,6-dihydropyridazin-3-yl)phenyl)-3-(trifluoromethyl)benzamide], for which the IC50 is 0.3 nM.

For the compound `Cc1ccc(NC(=O)c2cnnc(C3CC3)c2)cc1-c1cnc(OC2CCOCC2)c(N2CCOCC2)c1` [Example 276, 6-cyclopropyl-N-(4-methyl-3-(5-morpholino-6-((tetrahydro-2H-pyran-4-yl)oxy)pyridin-3-yl)phenyl)pyridazine-4-carboxamide], the IC50 came out at 0.2 nM.

For the compound `Cc1ccc(NC(=O)c2cccc(C(F)(F)F)c2)cc1-c1csc(N2CCOCC2)n1` [Example 199, N-(4-methyl-3-(2-morpholinothiazol-4-yl)phenyl)-3-(trifluoromethyl)benzamide], the IC50 is 1.3 nM.

Regarding `Cc1ncc(NC(=O)c2ccnc(C(C)(C)C#N)c2)cc1-c1cnc(N(C)C)c(N2CCOCC2)c1` [Example 265, 2-(2-cyanopropan-2-yl)-N-(6′-(dimethylamino)-2-methyl-5′-morpholino-[3,3′-bipyridin]-5-yl)isonicotinamide], the IC50 was 1.1 nM.

For `CCOc1cccc(C(=O)Nc2cnc(C)c(-c3cc(N4CCOCC4)c(=O)n(C)c3)c2)c1` [Example 397, N-(1′,2-dimethyl-5′-morpholino-6′-oxo-1′,6′-dihydro-[3,3′-bipyridin]-5-yl)-3-ethoxybenzamide], the IC50 is 3.4 nM.

As for `Cc1ccc(C(=O)Nc2ccccc2)cc1-c1cc(N2CCOCC2)c(=O)n(C)c1` [Example 429, 4-methyl-3-(1-methyl-5-morpholino-6-oxo-1,6-dihydropyridin-3-yl)-N-phenylbenzamide], the IC50 was determined as 6.7 nM.

For the compound `CCn1cc(C(=O)Nc2cnc(C)c(-c3cc(N4CCOCC4)c(=O)n(C)c3)c2)c(C)n1` [Example 373, N-(1′,2-dimethyl-5′-morpholino-6′-oxo-1′,6′-dihydro-[3,3′-bipyridin]-5-yl)-1-ethyl-3-methyl-1H-pyrazole-4-carboxamide], the IC50 came to 200 nM.

Take `Cc1ncc(NC(=O)c2cnnc(C(F)(F)F)c2)cc1-c1cnc(N(C)C)c(N2CCOCC2)c1` [Example 270, N-(6′-(dimethylamino)-2-methyl-5′-morpholino-[3,3′-bipyridin]-5-yl)-6-(trifluoromethyl)pyridazine-4-carboxamide]: the IC50 is 0.2 nM.
